The target of test [1] is human µ-opioid receptor (Homo sapiens, UniProt P35372). Nature of the test: Binding assay to human µ-opioid receptor ([3H]-DAMGO displacement). The conditions noted are these: read-out: Binding µ; transfected CHO-K1 cell membranes, [3H]-DAMGO 1 nM, 27 °C, 60 min.
The target of test [2] is human α2δ-1 subunit of Cav2.2 calcium channel (Homo sapiens, UniProt P54289). Description: Binding assay to human α2δ-1 subunit of Cav2.2 calcium channel ([3H]-Gabapentin displacement). The conditions noted are these: read-out: Binding α2δ-1; human α2δ-1 enriched membranes, 15 nM [3H]-Gabapentin, 27 °C, 60 min.

By UniProt entry, the sequences of proteins in these tests, tags left out. Where a name states a change or a piece, a line headed by the entry shows the natural chain unless it says otherwise. Residues count along the entry.
UniProt P35372, whole entry, looked up: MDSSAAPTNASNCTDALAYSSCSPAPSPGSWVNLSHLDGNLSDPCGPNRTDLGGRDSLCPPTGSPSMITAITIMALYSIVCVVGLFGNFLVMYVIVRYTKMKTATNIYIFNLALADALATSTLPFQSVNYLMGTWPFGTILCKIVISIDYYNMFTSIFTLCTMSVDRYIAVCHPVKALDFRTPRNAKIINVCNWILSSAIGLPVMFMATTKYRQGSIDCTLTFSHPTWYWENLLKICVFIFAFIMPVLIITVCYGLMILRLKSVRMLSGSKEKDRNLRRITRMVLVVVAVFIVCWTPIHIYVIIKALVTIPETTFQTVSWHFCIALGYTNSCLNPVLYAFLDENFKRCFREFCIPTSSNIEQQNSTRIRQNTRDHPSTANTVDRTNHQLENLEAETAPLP
UniProt P54289, 25-1103 limits assumed: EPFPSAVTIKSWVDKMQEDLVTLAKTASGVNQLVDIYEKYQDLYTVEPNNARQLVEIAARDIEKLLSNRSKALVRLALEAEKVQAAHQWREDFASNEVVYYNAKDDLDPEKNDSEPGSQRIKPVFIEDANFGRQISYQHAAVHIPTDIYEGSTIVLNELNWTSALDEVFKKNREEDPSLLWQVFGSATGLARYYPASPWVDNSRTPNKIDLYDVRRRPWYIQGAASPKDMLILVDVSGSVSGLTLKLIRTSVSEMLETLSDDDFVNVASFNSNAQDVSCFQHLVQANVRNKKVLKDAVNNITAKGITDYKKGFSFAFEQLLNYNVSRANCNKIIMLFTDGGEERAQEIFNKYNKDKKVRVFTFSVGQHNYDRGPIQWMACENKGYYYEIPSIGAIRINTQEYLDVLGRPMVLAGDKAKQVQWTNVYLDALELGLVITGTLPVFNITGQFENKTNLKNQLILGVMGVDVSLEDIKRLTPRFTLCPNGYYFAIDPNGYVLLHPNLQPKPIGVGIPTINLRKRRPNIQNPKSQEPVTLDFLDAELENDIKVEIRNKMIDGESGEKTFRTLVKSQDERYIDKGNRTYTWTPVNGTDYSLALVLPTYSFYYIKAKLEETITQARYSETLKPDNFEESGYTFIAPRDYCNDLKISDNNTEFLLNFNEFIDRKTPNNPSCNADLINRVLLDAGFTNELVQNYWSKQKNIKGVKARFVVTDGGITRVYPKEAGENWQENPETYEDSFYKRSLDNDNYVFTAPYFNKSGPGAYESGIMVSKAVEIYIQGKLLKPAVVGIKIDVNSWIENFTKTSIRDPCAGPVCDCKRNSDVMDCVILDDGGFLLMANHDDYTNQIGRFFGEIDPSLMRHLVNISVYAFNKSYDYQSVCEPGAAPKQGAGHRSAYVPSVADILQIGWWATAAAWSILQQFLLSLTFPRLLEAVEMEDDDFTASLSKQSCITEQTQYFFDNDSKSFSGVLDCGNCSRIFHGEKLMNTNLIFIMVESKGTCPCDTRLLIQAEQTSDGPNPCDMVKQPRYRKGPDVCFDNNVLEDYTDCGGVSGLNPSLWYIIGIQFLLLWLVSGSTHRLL

pKi: −log10 of the molar value. Bounds are passed on as bounds.

For the compound `CNC[C@@H](C(=O)N[C@H]1CC[C@](c2ccccc2)(N(C)C)CC1)[C@@H](C)c1ccccc1`, the pKi in test [1] is less than 6.30.
Take `CNC[C@@H](C(=O)N[C@H]1CC[C@@](c2ccccc2)(N(C)C)CC1)[C@@H](C)c1ccccc1`: in test [2], the pKi was greater than 6.30.
